Target: Progestin Receptor (Oryctolagus cuniculus, UniProt P06186)
Experiment: Progestin Receptor Binding (competitive binding, 3H-promegestone, rabbit uterus receptor preparation)
Settings: 3H-promegestone displacement, 4° C., 18 h

Sequences of proteins named here, by UniProt entry; tags and fusion partners are left off.
UniProt P06186, whole entry: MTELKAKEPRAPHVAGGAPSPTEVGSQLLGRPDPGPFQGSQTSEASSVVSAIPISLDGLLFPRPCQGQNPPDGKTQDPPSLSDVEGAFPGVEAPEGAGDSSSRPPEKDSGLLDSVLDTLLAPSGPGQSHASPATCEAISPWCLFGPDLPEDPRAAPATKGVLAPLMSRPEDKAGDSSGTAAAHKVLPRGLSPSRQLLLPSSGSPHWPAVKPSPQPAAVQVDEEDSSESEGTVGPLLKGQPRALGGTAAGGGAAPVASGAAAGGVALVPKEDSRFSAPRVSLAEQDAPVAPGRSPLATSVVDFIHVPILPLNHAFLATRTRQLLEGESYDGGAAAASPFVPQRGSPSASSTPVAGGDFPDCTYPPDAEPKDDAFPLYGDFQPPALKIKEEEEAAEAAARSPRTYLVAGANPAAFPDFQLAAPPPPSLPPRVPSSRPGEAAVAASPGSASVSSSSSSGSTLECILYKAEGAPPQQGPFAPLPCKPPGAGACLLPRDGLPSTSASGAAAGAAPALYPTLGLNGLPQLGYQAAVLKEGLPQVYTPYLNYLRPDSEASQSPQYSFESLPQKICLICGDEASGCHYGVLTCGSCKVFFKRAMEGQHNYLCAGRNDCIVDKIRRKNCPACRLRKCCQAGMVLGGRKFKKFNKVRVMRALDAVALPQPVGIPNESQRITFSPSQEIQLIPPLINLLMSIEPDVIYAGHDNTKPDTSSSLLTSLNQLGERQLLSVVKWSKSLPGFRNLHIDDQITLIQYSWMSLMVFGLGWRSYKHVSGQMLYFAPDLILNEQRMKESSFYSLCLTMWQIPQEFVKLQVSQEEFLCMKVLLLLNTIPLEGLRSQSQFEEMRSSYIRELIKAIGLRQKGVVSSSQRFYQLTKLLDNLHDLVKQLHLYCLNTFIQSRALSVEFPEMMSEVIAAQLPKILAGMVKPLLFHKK

COc1ccc2c(c1)CC1(C)Cc3cc(OC)ccc3C1=CC2 (stereo not shown)
IC50: 10 µM

Reference: patent publication US5834521A, “Substituted dibenz (A F)azulenes and methods of preparation” (Ortho Pharmaceutical Corporation, priority 1996, dated 1998)
